Results reported in patent US12365850B2, “Water-miscible functional fluid, undiluted stock of water-miscible functional fluid, sterilizer for water-miscible functional fluid, and method of sterilizing water-miscible function fluid” (priority 2020, dated 2025).

Experiment: pH drop suppression test of water-miscible cutting fluid (circulation and blue LED irradiation)
Type: physicochemical

OCCN(CCO)CCO
pH change rate (%) (100%×(pH at preparation−pH after continuing use)/(pH at preparation), riboflavin cutting fluid with the named antioxidant): 9.3% | Evaluation of pH drop supression (class by pH change rate, riboflavin cutting fluid with the named antioxidant): A (pH change rate of 15% or lower) | pH change (riboflavin cutting fluid containing the named antioxidant, one month, Table 3 (same values as Table 2)): 0.8

This is a selection: effects in other tests are not listed, and their absence says nothing.
